Assay outcomes from PubChem.
ClpP mod: qHTS Assay for Activators of ClpP; Potency, µM (highest dose often 57.5 µM), for inactives: at the highest dose activity change, negative = active; hit rate 1.9% among 340,000; purified B. subtilis ClpP, FRET peptide cleavage, 20 min; ATP-dependent Clp protease proteolytic subunit (Bacillus subtilis (strain 168)), P80244; AID 651965, 2013; active = well fitted falling curve with a large enough effect; inconclusive = small, poorly fitted or top-dose-only effect; inactive = no such curve, though single readings can be large or run the other way; note: potency is the fitted concentration of half-maximal effect; the source files actives as falling curves though it sought activators and does not explain the sign; nearly all actives have a fitted effect of over 65% in size
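ClpP 10 microg/mL final, pH 8 Tris/KCl buffer with BSA, glycerol, Tween-20; compound pinned in; FRET-FV substrate; RT 20 min; Ex320/Em430; ΔFRET vs ADEP 5.8 microM, DMSO, no enzyme.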
Nrf2 inh: Nrf2 pathway inhibition | A549 ARE-Fluc reporter, luciferase luminescence, 18-24 h | Potency, µM (series often up to 46 µM), inactives show top-dose activity change, negative = inhibition, actives largely listed as inhibitors | hit rate 2.1% among 360,000; note: potency is the fitted concentration of half-maximal effect; % is set by controls: 0 for no effect and ±100 for the full control effect; nearly all actives have a fitted effect of over 60% in size
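Two sequential reads on A549 ARE_Fluc cells exposed to compound for 18-24 h: a CellTiter-Fluor fluorescence read for viability, then a luciferase luminescence read for Nrf2/ARE activity.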
A549 tox: counter-screen for Nrf2 inhibitors: cytotoxicity in A549 cells. Potency, µM (titrated, usually from 46 µM), for inactives: at the top dose activity change, negative = cytotoxicity, most hits filed as inhibitors. hit rate 0.16% among 390,000. A549 ARE-Fluc cells, CellTiter-Fluor viability, 18-24 h; note: potency is the fitted concentration of half-maximal effect; % is set by controls: 0 for no effect and ±100 for the full control effect
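Cytotoxicity counterscreen: CellTiter-Fluor fluorescence was measured in A549 ARE_Fluc cells after 18-24 h of compound exposure in a concentration series. The subsequent BugLite luminescent read reports ARE-luciferase activity.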
Nrf2 ARE act: activates Nrf2 signaling. AID 624171. hit rate 0.31% among 410,000. Potency, µM (highest dose often 46.1 µM), for the others: at the top dose activation, most hits filed as activators. AREc32 ARE-luciferase reporter (MCF7-derived line), luminescence, 24 h; note: potency is the fitted concentration of half-maximal effect; % of control where 0% means no effect; nearly all actives have a fitted effect of over 65% in size
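ARE-driven firefly luciferase activity in AREc32 cells measured after a 24 hr compound exposure at 37 deg C, using Steady-Glo reagent and a 30 min room-temperature hold.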
miR-21 FLuc: miR-21 reporter, rising signal; HeLa miR-21 FLuc reporter, luciferase, 48 h; Potency, µM (titrated, usually from 38.3 µM), without a hit: top-dose reporter change, positive = more light; AID 2288; 340,000 tested, under 10 active; active = well fitted rising curve with a large enough effect; inconclusive = small, poorly fitted or top-dose-only effect; inactive = no such curve, though single readings can be large or run the other way;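 further: % of control where 0% means no effect; miR-21 action dims this reporter so a rising signal means less miR-21 action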
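HeLa cells stably expressing CMV-driven firefly luciferase with a downstream miR-21 binding sequence, endogenously expressing miR-21, were treated with titrations (up to about 40uM final) for 48 hours at 37 degree Celsius. Luciferase luminescence was read after lysis.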
IL-2 act: activates IL-2 in a cell-based reporter assay; activation, % (series mostly up to about 46 µM); AID 652025; IL-2 activation reporter assay, cell-based qHTS; stimulated with anti-CD3/CD4/CD28 beads; in transgenic mouse T cells; hit rate 0.065% among 360,000; in the data active = activation above about 50%; inconclusive = mostly about 30% to 49%; note: 0% is about no effect
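First, unstimulated transgenic mouse T cells were exposed to compound for 60 min. Next, anti-CD3/anti-CD4-coated beads with anti-CD28 were added. Finally, after 18 h at 37 degrees C, EGFP and DsRed were imaged.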
* = called active by the depositor; ? = inconclusive; · = no result given; [ ] = dose if it differs, or a comment. In the library only some 3.7% were active in any assay of this set; here they are far more common. Unless noted, calls come from the whole dose curve; as a rule, active = well fitted curve in the direction sought with a large enough effect; inconclusive = small, poorly fitted or top-dose-only effect, or another doubt; inactive = no such curve, though single readings can be large; an effect the other way counts as inactive or inconclusive.

By UniProt entry, the sequences of proteins in these tests, tags left out.
ATP-dependent Clp protease proteolytic subunit (Bacillus subtilis (strain 168)), P80244, UniProt P80244, whole entry, looked up: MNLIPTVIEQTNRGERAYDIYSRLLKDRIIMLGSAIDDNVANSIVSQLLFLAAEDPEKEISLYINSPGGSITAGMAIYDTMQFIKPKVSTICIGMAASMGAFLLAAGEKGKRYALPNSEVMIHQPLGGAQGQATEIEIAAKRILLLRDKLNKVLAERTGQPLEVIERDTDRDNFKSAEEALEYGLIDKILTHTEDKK

Codes – A = ClpP mod; B = Nrf2 inh; C = A549 tox; D = Nrf2 ARE act; E = miR-21 FLuc; F = IL-2 act
COc1ccccc1NC(=O)Cn1c(=O)n(Cc2ccco2)c(=O)c2oc3ccccc3c21
  A: 32µM*	B: 9%	C: -1%	D: 1%	E: -1%	F: ·
COc1cccc(NC(=O)Cn2c(=O)n(Cc3ccco3)c(=O)c3cc(OC)c(OC)cc32)c1
  A: 28µM*	B: -1%	C: 9%	D: 0%	E: 2%	F: ·
COc1cc2c(=O)n(Cc3ccccc3)c(=O)n(CC(=O)NCc3ccco3)c2cc1OC
  A: 16µM*	B: -13%	C: 10%	D: 0%	E: 8%	F: 0
Cc1ccc(NC(=O)Cn2c(=O)n(Cc3ccco3)c(=O)c3oc4ccccc4c32)cc1C
  A: -1%	B: 5%	C: 8%	D: 0%	E: -2%	F: ·
Cc1cccc(C)c1NC(=O)Cn1c(=O)n(Cc2ccc(C(=O)NCc3ccco3)cc2)c(=O)c2sccc21
  A: 5%	B: 18µM*	C: -22%	D: 0%	E: ?	F: ·
COc1ccc(-n2cc(-c3ccccc3)c3c(NCCc4ccc(OC)c(OC)c4)ncnc32)cc1
  A: ?	B: ·	C: -12%	D: -2%	E: ?	F: ·
COc1ccccc1NC(=O)Cn1c(C)cc(=O)c2cccc(OC)c21
  A: -1%	B: 12µM*	C: -15%	D: -1%	E: 13%	F: 1
COc1ccccc1NC(=O)Cc1cccc2ccccc12
  A: ·	B: 14%	C: 5%	D: -1%	E: -16%	F: -3
COc1ccc(C(C)(C)C)cc1NC(=O)CNc1cccc2ccccc12
  A: 11µM*	B: ?	C: -11%	D: 5%	E: -6%	F: 0
COc1cccc2c(=O)cc(C)n(CC(=O)Nc3ccc(C)c(C)c3)c12
  A: -10%	B: ?	C: -9%	D: 2%	E: 14%	F: 0
O=C(O)COc1ccccc1/C=C1\C(=O)Nc2ccc(Br)cc21
  A: 25µM*	B: 1%	C: -9%	D: 0%	E: -2%	F: 8
CC(C)NC(=O)c1nn(C)c2c1CS(=O)(=O)c1ccccc1-2
  A: -4%	B: -8%	C: -3%	D: 0%	E: 10%	F: ·
COc1cccc(OCC(=O)Nc2nnc3n2CCS3)c1
  A: -1%	B: ·	C: 1%	D: -1%	E: -3%	F: ·
COc1ccc(C(=O)NCCc2c[nH]c3ccccc23)cc1S(=O)(=O)N1CCCCC1C (centres undefined)
  A: -4%	B: -17%	C: -12%	D: 2%	E: ·	F: -4
COc1ccc(C(=O)NC2CCCCCC2)cc1S(=O)(=O)N1CCOCC1
  A: 25µM*	B: 24%	C: 16%	D: 0%	E: -10%	F: 0
COc1ccc(S(=O)(=O)Nc2cc(C(=O)NC3CCCCCC3)ccc2N2CCOCC2)cc1
  A: -4%	B: 18µM*	C: 1%[1.84 µM]	D: 3%	E: -25%	F: 2
Cc1ccc(C(=O)NC2CCCCCCC2)cc1S(=O)(=O)N1CCOCC1
  A: 1%	B: ?	C: 1%	D: 5%	E: ·	F: 0
COc1ccc(S(=O)(=O)Nc2cc(C(=O)NC(C)C)ccc2N2CCOCC2)cc1
  A: -1%	B: -27%	C: -3%	D: 0%	E: 23%	F: 0
COc1ccc(C(=O)NCCc2ccc(Cl)cc2)cc1S(=O)(=O)N1CCCCC1C (centres undefined)
  A: 0%	B: 16µM*	C: -7%	D: 0%	E: ·	F: 0
Cc1cc(C)c(C(N)=O)c(NCCc2ccccc2)n1
  A: 35µM*	B: 7%	C: -1%	D: 0%	E: -2%	F: 1
CCCN(C(=O)Cn1nc(Cc2cccnc2)c2ccccc2c1=O)c1ccc(C(C)C)cc1
  A: -2%	B: ?	C: -17%	D: 0%	E: -6%	F: ·
N#Cc1nc(NCC(F)F)c2ncn(-c3cccc(Cl)c3)c2n1
  A: ·	B: 21µM*	C: ?	D: ·	E: ·	F: ·
CCC(=O)Nc1ccccc1-c1nc2ccccc2n(CC(=O)c2ccc(C)c(C)c2)c1=O
  A: -3%	B: 13%	C: 1%	D: -1%	E: -3%	F: ·
CNc1oc(-c2cccs2)nc1C#N
  A: -48%	B: 6%	C: 4%	D: 0%	E: -23%	F: -4
COc1ccc(Nc2oc(-c3cccs3)nc2C#N)cc1
  A: 14µM*	B: ·	C: 7%	D: 8%	E: -53%	F: -1
COc1ccc(-c2ccc(C(=O)Nc3cccc(Oc4ccccc4)c3)c3occc23)c(C)c1
  A: 5%	B: ·	C: ·	D: 0%	E: ·	F: -1
COc1ccc(-c2ccc(C(=O)Nc3cccc(N(C)C)c3)c3occc23)c(C)c1
  A: 28µM*	B: ·	C: ·	D: 0%[9.22 µM]	E: ·	F: -1
CN(C)c1cccc(NC(=O)c2cccc3c(-c4ccc(F)c(F)c4)coc23)c1
  A: 22µM*	B: ·	C: ·	D: 3%	E: ·	F: 1
Cn1cc(-c2ccc(C(=O)Nc3cccc(Oc4ccccc4)c3)c3occc23)cn1
  A: 22µM*	B: ·	C: ·	D: 0%[9.22 µM]	E: ·	F: 1
COc1ccc(N(C)C(=O)c2nn(-c3ccc(C)cc3)c(=O)n(C)c2=O)c(OC)c1
  A: -1%	B: ·	C: -1%	D: 0%	E: -2%	F: ·
CCOC(=O)C1(C)C=C(Nc2ccc(NC(C)=O)cc2)C(=O)N1c1ccc(NC(C)=O)cc1 (centres undefined)
  A: 25µM*	B: -1%	C: -12%	D: 0%	E: -2%	F: 0
CCOC(=O)C1(C)C=C(Nc2ccccc2)C(=O)N1c1ccccc1 (centres undefined)
  A: -7%	B: -5%	C: 10%	D: 1%	E: -1%	F: -1
Cc1ccc(N2CCN(C(=O)C3CCN(S(=O)(=O)c4ccc5c(c4)oc(=O)n5C)CC3)CC2C)cc1 (centres undefined)
  A: -10%	B: -2%	C: 6%	D: 0%	E: 0%	F: ·
Cc1nn(Cc2ccccc2)c(C)c1N
  A: 28µM*	B: -7%	C: -7%	D: -1%	E: -13%	F: 1
CC1CCc2c(sc(NC(=O)COc3ccccc3C(C)(C)C)c2C#N)C1 (centres undefined)
  A: 1%	B: 0%	C: 2%	D: 1%	E: 0%	F: ·
CC1CCc2c(sc(NC(=O)COC(=O)c3ccccc3NCc3ccco3)c2C#N)C1 (centres undefined)
  A: 13µM*	B: -3%	C: -9%	D: 4%	E: -1%	F: -1
CCC(c1nnnn1CCOC)N(Cc1cc2c(C)cc(C)cc2[nH]c1=O)CC1CCCO1 (centres undefined)
  A: 28µM*	B: 2%	C: 2%	D: 2%	E: -9%	F: -2
CCC(c1nnnn1CCOC)N(Cc1cc2cc(C)c(C)cc2[nH]c1=O)CC1CCCO1 (centres undefined)
  A: ?	B: -21%	C: -7%	D: 0%	E: -3%	F: -1
O=c1oc2cc(O)ccc2s1
  A: 0%	B: 13µM*	C: 2%	D: ?	E: ·	F: -1
COCC(C)N1C(=O)Cc2c1nc(N)c1c(N)nc(N3CCN(c4ccccc4F)CC3)c(C#N)c21 (centres undefined)
  A: ·	B: 12µM*	C: -11%	D: 0%	E: -1%	F: -1
O=C(CN1C(=O)CCSc2ccc(S(=O)(=O)N3CCCC3)cc21)Nc1cccc(Cl)c1
  A: 0%	B: ·	C: 1%	D: 4%	E: 15%	F: ·
O=C(NC1CCCCC1)C(c1cccnc1)N(C(=O)CCl)c1ccc(F)cc1 (centres undefined)
  A: 1%	B: 18µM*	C: -21%	D: ?	E: ?	F: -1
